scFv variants of Ab-14 (light chain) against a SARS-CoV-2 spike peptide

Source: Li et al. 2023 (doi:10.1038/s41467-023-39022-2), MIT Lincoln Laboratory and A-Alpha Bio; data file from the FLAb repository.

Target peptide (SARS-CoV-2 spike, HR2 region): PDVDLGDISGINAS

Parent: Ab-14, a human scFv built as VH, three GGGGS repeats, VL. Only the CDRs of the light chain vary.
VH: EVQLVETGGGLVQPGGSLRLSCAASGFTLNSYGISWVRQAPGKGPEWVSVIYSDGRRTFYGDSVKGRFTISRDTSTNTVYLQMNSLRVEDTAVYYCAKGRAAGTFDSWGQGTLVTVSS
VL: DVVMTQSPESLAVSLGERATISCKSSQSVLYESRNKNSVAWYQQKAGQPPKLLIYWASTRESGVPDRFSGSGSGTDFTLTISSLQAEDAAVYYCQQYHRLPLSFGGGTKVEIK

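The parent was found by panning a naive human phage display library on the peptide. The variants were designed computationally from a first round of random CDR variants and then made and measured. Their group label is 14L_GP_Gibbs (GP: Gaussian process model; Gibbs: Gibbs sampling; a sequence that several methods proposed may carry one label only). The scFvs were displayed on barcoded MATa yeast, the peptide on MATalpha yeast. Binding brings cells together so that they mate, and sequencing counts the barcode pairs among the diploids. A regression on co-assayed BCL2-family reference pairs converts the normalised counts of each replicate to an apparent Kd. Mating was done six times.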

Changes read parent residue, position, new residue, counted from the first residue of the VL shown. Scale: log10 of Kd in nM, estimated from mating counts; low values are strong binders. "n.d." means that the variant was in the library but no mating with the target was seen in that replicate; the authors take this as a sign of poor binding, and no number exists.

changes,"log10 Kd, replicates",empty controls
S25I S28D V29Y L30E W56Q E61M S62V,-0.34 -0.37 -0.41 -0.49 -0.57 -0.39,0 of 18
S25A V29Q L30G N37W W56N,0.64 0.47 0.63 0.52 0.59 0.75,1 of 18 (2.54)
S25M V29M S33Q N35A W56N T59Q,-0.03 -0.12 -0.04 -0.28 -0.27 -0.02,0 of 18
S26M S28E V29D L30E E32Q W56H T59L,n.d. 1.46 2.21 1.07 1.23 1.50,0 of 18
S25L V29Q S38N W56S T59H S62H,0.05 -0.16 -0.01 0.02 0.09 0.06,3 of 18 (3.06)
S25L S26H V29Q K36I W56N T59Q E61C,0.42 0.16 -0.04 0.07 0.29 0.13,1 of 18 (2.46)
S25L S26M S28G V29D L30E Y31M W56N T59K S62E,-0.13 -0.22 -0.17 -0.29 -0.32 -0.14,1 of 18 (2.44)
S25L S28E V29D L30E K36P W56Q T59E,-0.08 -0.27 -0.34 -0.41 -0.27 -0.18,1 of 18 (2.21)
S25L S26E V29Q W56S T59H S62H,0.24 0.06 0.21 0.04 0.00 0.50,2 of 18 (2.07)
S25L S28Q V29H W56N T59L E61L Q96C,1.22 1.34 1.14 0.85 0.89 1.59,1 of 18 (2.51)
S25I Q27G V29Y Y31G K36W S38A W56N T59Q S62Q,0.53 0.38 0.25 0.27 0.57 0.78,0 of 18
S25L V29D L30G Y31G K36P W56H T59C E61C,1.04 1.36 0.74 1.01 0.87 0.93,2 of 18 (3.12)
S25L Y31Q E32Q S33W W56Q T59H,1.41 0.96 1.10 1.20 0.77 1.31,1 of 18 (3.79)
S25L V29M S33E W56H T59Q E61M,0.27 -0.02 0.02 0.08 -0.07 0.01,1 of 18 (2.76)
S25L S26V Q27M V29W L30Q S38N W56H T59Q E61C,0.27 0.31 0.26 0.16 0.13 0.44,1 of 18 (2.37)
S25V S26Q V29W L30E S38N W56M A57G S62D,-0.34 -0.60 -0.38 -0.85 -0.64 -0.32,1 of 18 (2.65)
S25V S26E S28L Y31P S33D W56N S62D,0.07 0.41 -0.14 -0.01 -0.09 0.40,0 of 18
S25L S26Q S28M V29E E32M W56D T59Q Q96A,0.16 -0.14 -0.04 -0.32 -0.36 0.11,0 of 18
S25L S26Q V29E Y31M K36S W56H T59K Q96D,0.72 0.50 0.71 0.33 0.47 0.65,2 of 18 (2.19)
S25V S26E Q27P L30Q Y31G S33Q K36F S38A W56S S62Q,0.24 0.06 0.07 -0.13 0.19 0.26,1 of 18 (2.19)
S25V S26P V29M K36A S38N W56N T59Q,-0.20 -0.26 -0.44 -0.30 -0.32 -0.04,0 of 18
S25L S26E Q27N V29N E32Q W56N E61Y,0.48 0.26 0.50 0.51 0.09 0.54,0 of 18
S25T S26Y Q27V V29D W56N T59E,0.15 0.19 0.30 0.08 0.32 0.21,1 of 18 (2.10)
Q27P W56N S62E,-0.06 -0.41 -0.29 -0.06 -0.31 -0.09,0 of 18
S28L V29E N35M W56N T59Y E61L S62D,0.50 0.40 0.31 0.39 0.51 0.36,1 of 18 (2.63)
S25C S26E V29W L30G N35V S38N W56N T59Q,0.04 0.05 -0.26 -0.06 -0.16 0.18,2 of 18 (3.05)
S25L S26Q V29E L30Q W56N T59D E61Q,-0.28 -0.43 -0.54 -0.37 -0.62 -0.24,0 of 18
S25V Q27G S28Q V29G E32G S33D K36A W56N S62D,-0.30 -0.38 -0.31 -0.55 -0.31 -0.25,4 of 18 (3.09)
S25Y S28L Y31M K36M W56N S62E,0.28 -0.01 -0.11 -0.06 -0.15 -0.01,0 of 18
S25V S28E V29Y Y31G K36M W56N S62Q,0.42 0.41 0.68 0.51 0.53 0.63,0 of 18
S25Q S26Q Q27C S28G V29E E32M W56D T59Q,-0.12 -0.37 -0.34 -0.34 -0.55 -0.14,1 of 18 (2.99)
S25V S28L V29Q L30D W56H T59Q S62Q,-0.19 -0.28 -0.32 -0.35 -0.57 -0.31,0 of 18
S25L S26Q Q27F S28L W56E E61F Q96A,1.75 1.92 1.39 2.05 2.65 1.90,0 of 18
S25M S26Q V29E L30G Y31M K36V W56H T59L E61L S62E,0.89 0.56 0.52 0.77 0.23 0.45,1 of 18 (3.15)
S25L Q27F S28G W56G Q96A,0.63 0.32 0.04 0.10 0.54 0.57,0 of 18
S25L S28Q V29D L30E E32Q S38Q W56N E61Y,0.44 0.27 0.09 0.06 0.11 0.31,0 of 18
S25G S26Q V29Q L30Q K36W W56N T59Y,2.08 3.26 2.47 n.d. 1.81 1.02,0 of 18
S25M V29A L30P Y31M K36W W56N,0.24 -0.09 0.65 -0.02 0.10 0.24,0 of 18
S25L Q27M V29D Y31M K36W W56H S62E,0.53 0.60 0.39 0.63 0.22 0.70,2 of 18 (2.73)
S25L S26D L30M Y31L E32W W56Q E61M Q96D,-0.39 -0.16 -0.13 -0.38 -0.41 -0.15,1 of 18 (2.54)
S25A S26V S28G V29E N35D K36W S38N W56D E61L,0.44 0.16 0.15 0.01 0.20 0.23,1 of 18 (1.91)
S25V S26F Q27P V29G L30G Y31M E32L W56D,0.12 -0.05 -0.06 -0.19 0.06 0.11,1 of 18 (2.33)
S25M L30D Y31G E32L S33D K36W W56Q S62M,-0.02 -0.07 -0.14 0.03 -0.07 0.01,1 of 18 (2.82)
S25L S26Q V29M N35W K36W W56D T59V E61C S62D,0.54 0.42 0.51 0.47 0.52 0.52,1 of 18 (2.63)
S25L S26V Q27E V29E N35Q K36S S38A W56N T59Y S62E,0.62 0.56 0.33 0.29 0.35 0.57,2 of 18 (3.58)
S25L V29Q K36S N37K W56N E61V,0.48 0.21 0.24 0.39 0.23 0.28,3 of 18 (2.79)
S25A Q27P V29E L30E W56N T59L E61L S62E,0.10 0.08 -0.13 -0.01 -0.06 0.03,2 of 18 (2.33)
S25I S26Q S28L W56D E61F Q96A,-0.10 -0.01 0.03 -0.19 -0.29 -0.04,0 of 18
S25L Q27G Y31P W56S S58T E61L,0.00 -0.10 -0.06 -0.22 0.06 0.09,2 of 18 (2.49)
S25L S26D V29D L30W Y31L E32Q K36V W56Q,0.14 0.08 0.05 -0.12 0.08 0.19,2 of 18 (4.18)

Excerpt, the first 5 entries:

changes,"log10 Kd, replicates",empty controls
S25I S28D V29Y L30E W56Q E61M S62V,-0.34 -0.37 -0.41 -0.49 -0.57 -0.39,0 of 18
S25A V29Q L30G N37W W56N,0.64 0.47 0.63 0.52 0.59 0.75,1 of 18 (2.54)
S25M V29M S33Q N35A W56N T59Q,-0.03 -0.12 -0.04 -0.28 -0.27 -0.02,0 of 18
S26M S28E V29D L30E E32Q W56H T59L,n.d. 1.46 2.21 1.07 1.23 1.50,0 of 18
S25L V29Q S38N W56S T59H S62H,0.05 -0.16 -0.01 0.02 0.09 0.06,3 of 18 (3.06)

The parent sequence was in this pool as ten entries: three were never detected, three once, and four in most replicates, with averages from 0.34 to 2.37. The range of this assay differs from that of the first round, and the authors advise against merging the two. Three control strains display no target. For all light chain designs, 4% of the pairings with them gave a signal, with a median of 2.64 and one signal in twenty below 1.59, so weak values seen in few replicates may be background. Also given: how often the same scFv was detected with the empty control strains, with their mean in brackets. The authors' rule: three or more of the six replicates give a measured affinity, fewer mean a poor binder.